Data as given in patent US4968690A (priority 1989, dated 1990).

How the values were obtained:
[1] = system: AdoHcy hydrolase in HL-60 cells; conditions: for formation of neplanocylmethionine (NepMet): neplanocin A 10^-6 M, other analogs 10^-5 M
[2] = system: AdoHcy-ase in HT-29 cells; conditions: 24 hours
[3] = system: AdoHcy-ase in HT-29 cells; test: cells; conditions: Homo sapiens, HT-29, 24 h, read-out: drug concentration at which increase in AdoHcy begins

Nc1ncnc2c1ncn2[C@@H]1C=C(CO)[C@@H](O)[C@H]1O [Neplanocin A, 9-[(1'R,2'S,3'R)-4-Hydroxymethyl-2',3'-dihydroxy-4-cyclopenten-1'-yl]adenine, reference compound]
accumulation of AdoHcy (in words) ([1]; 10^-6 M): equivalent accumulation of AdoHcy
formation of neplanocylmethionine (NepMet) [1]: even greater amount of the anabolite, neplanocylmethionine
formation of methionine metabolite (NepMet) [2]: also observed
AdoHcy concentration ([2]; 1 to 100M drug): 80 pmoles/10^6 cells
minimal effective concentration [3]: 0.1 µM

3-deazaaristeromycin
formation of neplanocylmethionine (NepMet) [1]: not formed
formation of methionine metabolite (NepMet) [2]: did not form a similar metabolite
